How the values were obtained:
[1] = Open label pharmacokinetic study GW01-0804: serum pharmacokinetics; settings: both, human, in vivo; for concentration at 21 day (trough, pre-application): Geometric LS Mean, Secondary steady-state analysis (BLQ replaced with LLOQ/2), N 15
[2] = rats
Method: A combined fertility and peri- and post-natal development study was conducted in rats.

[3] = cell culture; cited from earlier work

| SMILES | concentration at 21 day (trough, pre-application) ([1]; Reference (trough serum concentration), Day 22 vs. Day 21) | concentration at 21 day (trough, pre-application) ([1]; Test (trough serum concentration), Day 21 vs. Day 14) | Growth, fertility or reproduction ([2]; daily oral, doses up to 57×MRHD based on AUC) | Growth, fertility, reproduction or post-natal development ([2]; oral, up to 6 mg/kg/day (50×MRHD based on AUC)) | Direct antiviral activity [3] | Tmax [1] |
| --- | --- | --- | --- | --- | --- | --- |
| CC(C)Cn1cnc2c(N)nc3ccccc3c21 [imiquimod, 1-(2-methylpropyl)-1H-imidazo[4,5-c]quinolin-4-amine] | 0.113 ng/mL | 0.113 ng/mL | no effects | No effects | no direct antiviral activity |  |
| CC(C)Cn1cnc2c(N)nc3ccccc3c21 [Imiquimod (R-837)] |  |  |  |  |  | 12 h |
